Series [1] has as its system MCF-7 cells. Put plainly: Cytotoxicity to MCF-7 cells with or without 25 μM dicoumarol (sulforhodamine B assay). Particulars: Table 1. As for the experimental part:
The NQO1-dependent cytotoxicity of the first set of derivatives was determined in MCF-7 cells which express high levels of NQO1. Cells were exposed to DNQ for 2 hours in the presence or absence of 25 μM DIC. The media was then removed and cells were washed once with media then fresh media was added and the cells were incubated for 72 hours. Cell death was assessed using the sulforhodamine B assay previously described. […] Dodecyl derivative 4-10 was insoluble in DMSO (<0.1 mM) and could not be assessed in this assay. […] As was the case with 4-10, compound 4-13 was insoluble in DMSO. Substitution off the nitrogen appeared well tolerated (4-14 and 4-15).
The DNQ derivatives synthesized were assayed for their toxicity to MCF-7 cells with or without DIC. The data from these experiments is organized in Table 4.2. […] This tolerance of sterically-demanding substituents corresponds with a flexible and promiscuous NQO1 active site. The poor activity of hydroxyl derivative 4-41 may be a result of either poor binding with the largely hydrophobic NQO1 active site or with an excessively strong substrate-enzyme interaction because of hydrogen bonding.
For orientation: The SRB assay estimates cell density from bound dye.

Chains of the proteins cited; added tags and fusions are not shown.
UniProt P15559, whole entry: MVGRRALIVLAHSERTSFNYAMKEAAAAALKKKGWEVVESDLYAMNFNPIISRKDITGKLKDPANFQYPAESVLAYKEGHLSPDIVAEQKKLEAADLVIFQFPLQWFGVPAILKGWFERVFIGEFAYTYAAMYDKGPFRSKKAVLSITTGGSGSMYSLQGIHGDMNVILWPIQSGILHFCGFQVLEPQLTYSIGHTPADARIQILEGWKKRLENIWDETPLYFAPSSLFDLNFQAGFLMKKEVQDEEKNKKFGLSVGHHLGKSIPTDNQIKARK

The target in series [2] is NQO1 (Homo sapiens, UniProt P15559). Put plainly: NQO1 enzymatic measurements in vitro. As for the experimental part:
As further evidence that the activity of these DNQ derivatives is dependent on their ability to be reduced by NQO1, full enzymatic measurements in vitro were performed. We found a strong correlation between catalytic efficiency of substrates in vitro and their cell culture toxicity. […] This provides strong evidence that the cytotoxicity of DNQ and its derivatives are dependent primarily upon the activity of NQO1 within the cell.

The nature of series [3]: Solubility in organic solvents. Particulars: Table 1. As for the experimental part:
The solubility of DNQ derivatives in organic solvents was determined by measuring the amount of a given solvent required to dissolve a known amount of compound. Solvent was added to the compound in 50 μL aliquots and the slurry was sonicated. This process was repeated until all the solid had dissolved, leaving a clear red solution. The endpoint was generally very well defined. Solubility was assessed in DMSO, dichloromethane, and 33% methanol in dichloromethane (FIGS. 9, 10, and 11, respectively).

Data on one compound can be found in patent publication US10285986B2, “Compounds and anti-tumor NQO1 substrates” (The Board of Trustees of the University of Illinois, priority 2011, dated 2019).

As for `CCCc1cc(=O)[nH]c2c1C(=O)c1c(C)cc(=O)n(C)c1C2=O` [Compound 4-12], in series [1], the “Fold Protection of MCF7 cells w/ 25 μM dicoumarol” value is listed as 1.6. In addition, the “NQO1 Vmax” value in series [2] was 1540 ± 80 μmol/min/μmol protein. Besides, in series [2] (1 μM substrate), the “NQO1 Initial Velocity @ 1 μM” value is recorded as 280 ± 40. Also, in series [2] (Table 1), the “Catalytic Efficiency” value is 5.9e+06 M⁻¹ s⁻¹. Moreover, in series [3] (CH2Cl2:MeOH 2:1), the “CH2Cl2:MeOH 2:1 solubility” value was 10 mM. For the same compound, the CH2Cl2 solubility in series [3] (CH2Cl2) amounted to 2 mM.
